Test: PK Parameters Using 2-Compartment Model
Excerpt: Table printed on a drawing sheet, Fig. 10D
Title: PK Parameters Using 2-Compartment Model
The patent's description of the figure: FIG. 10A. Pharmacokinetics for trastuzumab.
FIG. 10B. Pharmacokinetics for trastuzumab conjugated to peptide FRM047.
FIG. 10C. Tabular data for results in FIG. 9A and FIG. 9B.
FIG. 10D. PK Parameters Using 2-Compartment Model for results in FIG. 9A and FIG. 9B.
First reader's note: Each column is one substance (trastuzumab parent antibody and its FRM047 peptide conjugate); the second left column holds the units.

For Tmab, the “AUC0-inf |” value was 25800 µg·h/mL, the “AUC0-t |” value was 12500 µg·h/mL and the “CL2 (Q) |” value was 0.00021 L/h. For the same substance, the “CL (CL) |” value was 2.78e-06 L/h, the “V2 (V2) |” value was 0.074 L/kg and the “Vc (V1) |” value was 0.056 L/kg. The “t1/2 | hr” value was 27.1 days.

Source: patent US20240285787A1, “PEPTIDES COMPRISING N-FORMYL-HALOGENATED METHIONINE RESIDUES AND ENGINEERED ANTIBODY-PEPTIDE CONJUGATES THEREOF” (Eli Lilly and Company, priority 2021, published 2024)
